# Laboratory results published in US11484534B2, “Methods for treating HCV” (priority 2013, dated 2022).
# Format: in vivo, human
# Details: Compound 1 300 mg vs 200 mg
# Procedure: Two open-label, multicenter studies were conducted to evaluate the efficacy, safety, and pharmacokinetics of co-administration of Compound 1 (200 or 300 mg QD) and Compound 2 (40 or 120 mg QD) with or without RBV in GT1-, GT2- or GT3-infected subjects. Blood samples for pharmacokinetic analysis were collected throughout the study treatment period.
structure (smiles),measurement,value
CC(C)(C)[C@@H]1NC(=O)O[C@@H]2CCC[C@H]2OC/C=C/C(F)(F)c2nc3ccccc3nc2O[C@@H]2C[C@@H](C(=O)N[C@]3(C(=O)NS(=O)(=O)C4(C)CC4)C[C@H]3C(F)F)N(C2)C1=O [Compound 1],steady state exposure following 300 mg relative to 200 mg,approximately 3.7 fold
